From ChEMBL document CHEMBL2331117 (J Med Chem, 2013)

Species: Homo sapiens
Experiment: Selectivity ratio of IC50 for PI3Kalpha (unknown origin) to IC50 for mTOR (unknown origin)

Ratio IC50	Structure (SMILES)
> 1000	CCc1c(C(=O)N2CCOc3ccc(-c4ccc5nc[nH]c5c4)cc3C2)ccc(S(C)(=O)=O)c1F
> 100	Cc1nc2ccc(-c3ccc4c(c3)CN(C(=O)c3ccc(C(=O)C(F)(F)F)cc3)CCO4)cc2[nH]1
